Data: patent US20250375530A1, “ROR1/EGFR BI-SPECIFIC ANTIGEN BINDING MOLECULES” (ALMAC DISCOVERY LIMITED, priority 2022, published 2025)

tested on: hROR1 and mROR1; assay: Binding to both hROR1 and mROR1 (summary statement); parameters: species or system human, mouse

experimentally confirmed binding to both hROR1 and mROR1 | Molecule
bind to both hROR1 and mROR1 | P3A1 G1 NAC6: P3A1 G1 loop variant VNAR, SEQ ID NO: 79 (protein) TRVDQSPSSLSASVGDRVTITCVLTDTRYALYSTYWYRKNPGSTDEERISIGGRYSESVNKGSKSFTLTISSLQPEDSATYYCRAREARHPWLRQWYDGAGTKVEIKQACKAHHHHHHG
bind to both hROR1 and mROR1 | P3A1 G1 AE3: P3A1 G1 loop variant VNAR, SEQ ID NO: 77 (protein) TRVDQSPSSLSASVGDRVTITCVLTGTRYGLYSTYWYRKNPGSSDEERISISGRYSESVNKGTKSFTLTISSLQPEDSATYYCRAREARHPWLRQWYDGAGTKVEIKQACKAHHHHHHG
bind to both hROR1 and mROR1 | P3A1 G1 NAC6.S: P3A1 G1 loop variant VNAR, SEQ ID NO: 80 (protein) TRVDQSPSSLSASVGDRVTITCVLTDTRYALYSSTYWYRKNPGSTDEERISIGGRYSESVNKGSKSFTLTISSLQPEDSATYYCRAREARHPWLRQWYDGAGTKVEIKQASGAHHHHHHGAEFEQKLISEEDL
bind to both hROR1 and mROR1 | P3A1 G1 AE3.S: P3A1 G1 loop variant VNAR, SEQ ID NO: 78 (protein) TRVDQSPSSLSASVGDRVTITCVLTGTRYGLYSSTYWYRKNPGSSDEERISISGRYSESVNKGTKSFTLTISSLQPEDSATYYCRAREARHPWLRQWYDGAGTKVEIKQASGAHHHHHHGAEFEQKLISEEDL
bind to both hROR1 and mROR1 | P3A1 G1 NAG8: P3A1 G1 loop variant VNAR, SEQ ID NO: 81 (protein) TRVDQSPSSLSASVGDRVTITCVLTGTKYGLYATYWYRKNPGSPNKDRMIIGGRYSESVNNGTKSFTLTISSLQPEDSATYYCRAREARHPWLRQWYDGAGTKVEIKQACKAHHHHHHGAEFEQKLISEEDLG
